# Biological target: Muscarinic acetylcholine receptor M1 (Rattus norvegicus) (UniProt P08482)
# Protein sequences, listed by entry. Tags and fused reporters are not part of them. Lines headed by an entry give the natural chain unless they say otherwise; changes in a name come on top.
# UniProt P08482: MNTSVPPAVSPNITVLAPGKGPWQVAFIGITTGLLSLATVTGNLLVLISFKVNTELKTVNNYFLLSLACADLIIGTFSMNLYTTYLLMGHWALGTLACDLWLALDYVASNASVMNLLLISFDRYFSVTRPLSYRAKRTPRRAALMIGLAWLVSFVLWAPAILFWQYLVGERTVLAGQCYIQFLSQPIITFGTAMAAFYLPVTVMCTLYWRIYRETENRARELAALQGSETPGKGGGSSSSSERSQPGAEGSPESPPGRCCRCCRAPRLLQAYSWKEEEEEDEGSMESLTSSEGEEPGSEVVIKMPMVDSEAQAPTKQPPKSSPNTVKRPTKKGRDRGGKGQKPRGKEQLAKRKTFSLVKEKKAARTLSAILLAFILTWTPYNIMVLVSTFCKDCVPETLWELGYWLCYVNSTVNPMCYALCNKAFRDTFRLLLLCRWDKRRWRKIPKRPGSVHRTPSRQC
# Assay: M1 inhibitors against agonist EC80 response – cell-based, calcium fluorescence, dose response (AID 859)
# Conditions: M1-expressing cells, antagonist mode vs EC80
compound,measurement,value
Cc1ccc(OCC(=O)OC2CN3CCC2CC3)cc1 (stereo unspecified),IC50,8.28 µM

# — PubChem BioAssay AID859 (Vanderbilt High Throughput Screening Facility, 2007)
